Legend:
KM mice = experiment: Disappearance of righting reflex in mice after tail vein injection; type: in vivo
SD rats = experiment: Disappearance of righting reflex in rats after tail vein injection; type: in vivo
[1] = single tail vein injection at 2×ED50, time from recovery of righting reflex to free crawling

`CCC(CC)OC(=O)OC(OC(=O)CC[C@@H]1N=C(c2ccccn2)c2cc(Cl)c(OC(F)(F)F)cc2-n2c(C)cnc21)C1CC(F)C(CC)C1` (stereo partly drawn) [Example 68, (3-Ethyl-4-fluorocyclopentyl) (((pentanyl-3-yloxy)carbonyl)oxy)methyl 3-((4S)-8-chloro-1-methyl-6-(pyridine-2-yl)-9-(trifluoromethoxy)-4H-benzo[f]imidazo[1,2-a][1,4]diazapin-4-yl) propionate L-aspartate] was tested, and the 2ED50 recovery time (KM mice; [1]) was 2.49 min, the Quality of recovery (KM mice; tail vein injection) was “++ (“++” means 1-3 min)” and the 2ED50 recovery time (SD rats; [1]) was 2.18 min. The Quality of recovery (SD rats; tail vein injection) was “++ (“++” means 1-3 min)”.

Reference: patent US12473291B2 (priority 2019, dated 2025)
